# Screens as filed in PubChem BioAssay.
# miR-21 FLuc – raises the signal of a miR-21 reporter | HeLa miR-21 FLuc reporter, luciferase, 48 h | Potency, µM (doses to about 38.3 µM), without a hit: at the top dose reporter change, positive = more light | 340,000 tested, under 10 active | AID 2288; active = well fitted rising curve with a large enough effect; inconclusive = small, poorly fitted or top-dose-only effect; inactive = no such curve, though single readings can be large or run the other way;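 note: % of control where 0% means no effect; miR-21 action dims this reporter so a rising signal means less miR-21 action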
#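 Luminescence from a firefly luciferase reporter carrying a miR-21 binding site downstream, stably expressed under a CMV promoter in HeLa cells that make miR-21 endogenously, reports miRNA modulation after 48 h compound exposure up to approximately 40uM final.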
# KDM4E inh – JMJD2E (human) inhibition | AID 2147 | B2RXH2 | Potency, µM (doses to about 57.1 µM), for the others: at the top dose activity change, negative = inhibition, hits mostly inhibitors | JMJD2E catalytic domain, FDH-coupled NADH fluorescence (FDH is formaldehyde dehydrogenase) | 1.6% of 230,000 active; active = well fitted inhibition curve with a large enough effect, not every such curve was filed as active; inconclusive = small, poorly fitted or top-dose-only effect, or another doubt; inactive = no such curve, though single readings can be large or run the other way;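 note: potency is the fitted concentration of half-maximal effect; 0% = wells with enzyme and -100% = buffer wells without enzyme; nearly all actives have a fitted effect of over 50% in size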
# Lamin A splicing – changes lamin A minigene splicing in HeLa cells. HeLa LMNA splicing GFP/RFP minigene ratio, 48 h. Potency, µM (highest dose often 46.1 µM), without a hit: at the highest dose ratio change, negative = inhibition, actives largely listed as inhibitors. 0.01% of 200,000 active. AID 1487; active = well fitted inhibition curve with a large enough effect in the signal ratio, with a control signal flat, not every such curve was filed as active; inconclusive = small, poorly fitted or top-dose-only effect, or effect the other way, or a change in a side signal; the % refers to the signal ratio; note: potency is the fitted concentration of half-maximal effect; % is set by controls: 0 for no effect and ±100 for the full control effect
#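 S3 HeLa cells stably expressing lamin A-EGFP splicing minigene plus DsRed2, 600 cells/well, 48 h compound exposure at 37C. Laser-scanning cytometry; analysed as GFP (500-530 nm)/RFP (575-640 nm) total intensity ratio; 0.5% DMSO vehicle.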
# G9a inh – G9a (human) methyltransferase inhibition | AID 504332 | G9a H3K9 monomethylation, AlphaScreen, 2 h | Q96KQ7 | Potency, µM (series often up to 102 µM), for inactives: at the highest dose activity, negative = inhibition, hits mostly inhibitors | 8.8% of 350,000 active; note: potency is the fitted concentration of half-maximal effect; % is set by controls: 0 for no effect and ±100 for the full control effect; nearly all actives have a fitted effect of over 75% in size
#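 AlphaScreen read-out: biotin-H3K9 peptide (500 nM) methylation by 20 nM enzyme with 20 uM SAM, 2 h at room temperature after 15 min compound preincubation; anti-monomethyl H3K9 antibody plus donor/acceptor beads, 10 min dark.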
# ALDH1A1 block – inhibitors of human aldehyde dehydrogenase 1A1; P00352; Purified ALDH1A1, NADH fluorescence, propionaldehyde substrate; Potency, µM (top dose mostly 75.3 µM), for the others: at the highest dose activity, negative = inhibition, actives largely listed as inhibitors; 7.3% of 220,000 active; AID 1030; active = well fitted inhibition curve with a large enough effect, not every such curve was filed as active; inconclusive = small, poorly fitted or top-dose-only effect, or another doubt; inactive = no such curve, though single readings can be large or run the other way;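 note: potency is the fitted concentration of half-maximal effect; plate controls were no enzyme wells and a reference inhibitor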
# Sfp inh – inhibitors of Bacillus subtilis Sfp phosphopantetheinyl transferase | 310,000 compounds, 3.5% hits | Potency, µM, without a hit: max response, negative = inhibition, most hits filed as inhibitors | Q9F4F7 | Biochemical Sfp PPTase activity, qHTS; active = well fitted inhibition curve with a large enough effect; inconclusive = small, poorly fitted or top-dose-only effect, or another doubt; inactive = no such curve, though single readings can be large or run the other way;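 also: the enzyme is Sfp with the accession as filed and its product quenches rhodamine fluorescence; potency is read from the fitted curve at half-maximal effect; 0% = enzyme reaction without inhibitor and -100% = no enzyme wells; top concentration of the series not given in the record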
#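 Step 1, compound plus 15 nM Sfp-PPTase, 15 min, room temperature. Step 2, add rhodamine-CoA (5 uM) and BHQ-2-YbbR (12.5 uM). Step 3, read 525/598 nm fluorescence at 0 and 30 min.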
# * hit, by the source's call; u = inconclusive; x = not tested or not shown; ! = not confirmed by another sample; [ ] = dose if it differs, or a comment. Sampled rows, rich in hits. Any-hit rate of the full collection: about 13%. Unless noted, calls come from the whole dose curve; as a rule, active = well fitted curve in the direction sought with a large enough effect; inconclusive = small, poorly fitted or top-dose-only effect, or another doubt; inactive = no such curve, though single readings can be large; an effect the other way counts as inactive or inconclusive.
miR-21 FLuc	KDM4E inh	Lamin A splicing	G9a inh	ALDH1A1 block	Sfp inh	compound
9%	u	u	45µM*	u	-17%	O=C(Nc1nc2c(s1)COc1ccccc1-2)c1cccs1
11%	x	x	51%	x	15%	CC(=O)c1sc(NC(=O)CCS(=O)(=O)c2ccccc2)nc1C
-1%	5%	x	0%	-2%	-14%	O=C(CCCn1c(=O)[nH]c2cc(Cl)ccc2c1=O)NCCCN1CCN(c2ccc(F)cc2)CC1
u	x	-25%[46 µM]	u	x	x	COc1ccc(-n2cc(-c3ccccc3)c3c(NCCc4ccc(OC)c(OC)c4)ncnc32)cc1
4%	2%	-6%[46 µM]	14µM*	-10%	-3%	Cc1c(N=N/C(C(=O)Nc2ccccc2)=C(/O)c2ccccc2)c(=O)n(-c2ccccc2)n1C
1%	2%	10%[46 µM]	7%	8%	17%	CCOC(=O)N1CCN(C(=O)c2ccc(SC)cc2OC)CC1
-3%	7%	-3%	16%	10µM*	-7%	CCCc1nc(N2CCOCC2)c2sc(=S)n(-c3ccccc3)c2n1
-2%	-15%	u	25µM*	u	11%	CC1=NN(c2ccc(S(=O)(=O)O)cc2C)C(=O)C1
6%	1%	x	-13%	x	11%	Cc1ccc(C)c(N2N=C(C(=O)O)CCC2=O)c1
u	-5%	u	50µM*	4%	50µM*	OC(CNCC(c1ccc(Cl)cc1Cl)c1c[nH]c2ccccc12)c1ccccc1 (configuration not stated)
-1%	x	x	25µM*	x	-9%	CCCC(=O)N(Cc1cc(=O)[nH]c2ccccc12)c1ccc(C)cc1
-3%	x	x	45µM*	x	-8%	CCCC(=O)N(Cc1cc(=O)[nH]c2ccccc12)c1ccccc1OC
-4%	-21%	x	50µM*	x	-2%	Cc1ccc(N(Cc2cc(=O)[nH]c3ccccc23)C(=O)C(C)C)cc1
-1%	-29%	6%	50µM*	14µM*	56µM*	COc1ccc(N(Cc2cc(=O)[nH]c3ccccc23)C(=O)c2ccco2)cc1
-14%	2%	-13%	11%[59 µM]	-4%	-1%	COc1ccc(CN(C(=O)c2ccco2)c2ccccc2)cc1

# Of the compounds above, five have sulfur.
miR-21 FLuc	KDM4E inh	Lamin A splicing	G9a inh	ALDH1A1 block	Sfp inh	compound
9%	u	u	45µM*	u	-17%	O=C(Nc1nc2c(s1)COc1ccccc1-2)c1cccs1
11%	x	x	51%	x	15%	CC(=O)c1sc(NC(=O)CCS(=O)(=O)c2ccccc2)nc1C
1%	2%	10%[46 µM]	7%	8%	17%	CCOC(=O)N1CCN(C(=O)c2ccc(SC)cc2OC)CC1
-3%	7%	-3%	16%	10µM*	-7%	CCCc1nc(N2CCOCC2)c2sc(=S)n(-c3ccccc3)c2n1
-2%	-15%	u	25µM*	u	11%	CC1=NN(c2ccc(S(=O)(=O)O)cc2C)C(=O)C1

# (further entries)
miR-21 FLuc	KDM4E inh	Lamin A splicing	G9a inh	ALDH1A1 block	Sfp inh	compound
x	x	x	-41%	x	x	COc1ccc(NC(=O)C(=O)NCCC2CCCCN2S(=O)(=O)c2ccccc2)cc1 (configuration not stated)
5%	x	x	8%[59 µM]	x	x	COc1ccc(Cl)cc1Nc1cc(C)nc2nc(-c3ccccc3C)nn12
12%	x	x	71µM*!	x	-1%	CCc1ccc(-c2cc(C)no2)cc1S(=O)(=O)NCc1ccco1
-8%	x	x	45µM*	x	1%	Cc1cc(S(=O)(=O)NCc2ccco2)c(C)cc1Cl
-10%	6%	10%	8%[12.7 µM]	9%	10%	COc1cc(C)c(Cl)cc1S(=O)(=O)NCc1ccco1
1%	x	x	u	x	-5%	Cc1cc(-c2ccc(C)c(S(=O)(=O)NCCc3ccco3)c2)on1
-10%	133%	17%	u	20µM*	-24%	COc1ccc(C2C(C(=O)c3ccco3)=C(O)C(=O)N2CCOCCO)cc1OC (configuration not stated)
-29%	u	5%	50µM*	-5%	-6%	COc1ccc(C2C(C(=O)c3ccco3)=C(O)C(=O)N2CCc2ccccc2)cc1OC (configuration not stated)
-7%	x	9%[46 µM]	8%[59 µM]	x	x	Cc1ccc(-n2nc(C(=O)N3CCCCC3)c(=O)n(C)c2=O)cc1
-2%	x	x	2%[59 µM]	x	x	COc1ccccc1CNC(=O)c1cc2c(=O)oc3ccc(C)cc3c2s1
-3%	x	x	11%[59 µM]	x	x	CCCCn1c(=O)n(-c2cc(OC)ccc2OC)c(=O)c2c3c(sc21)CN(C(C)=O)CC3
29%	x	x	1%[59 µM]	x	x	COc1ccc(CNC(=O)c2ccc3c(c2)N(Cc2c(F)cccc2Cl)C(=O)CS3)cc1
x	x	x	-1%[12.7 µM]	x	x	NC(=O)C1CCN(c2nc(-c3ccccc3-c3ccccc3)cs2)CC1
0%	x	x	20µM*	x	-26%	CCN(CC(=O)Nc1c(F)cccc1F)C(=O)c1ccc(=O)[nH]c1
x	x	x	-1%	x	x	CCN(CC(=O)Nc1c(F)cccc1F)C(=O)c1ccc(C(=O)c2ccccc2)cc1
-3%	x	x	-6%	x	13%	Cc1cc2c(SCC(=O)NC3CCCC3)ncnc2s1
x	4%	-13%	5.3µM*	-14%	x	CC(C)(C)c1onc(OCP(=O)(O)O)c1CC(N)C(=O)O (configuration not stated)
-2%	u	-4%	-11%[59 µM]	-2%	-1%	COc1cc2c(cc1OC)C(SC)=NC(C)(C)C2
-22%	-1%	u	11µM*	u	1%	COc1cc2c(cc1OC)C(/C(C#N)=N\O)=NC(C)(C)C2
1%	x	x	x	x	4%	CCCOc1ccc(Cc2c(O)nc(SC)[nH]c2=O)cc1
-5%	x	x	u	x	x	Cc1ccc(NC(=O)CSc2nc(-c3ccco3)nc3cc(=O)[nH]n23)cc1C
0%	-5%	x	10µM*	u	18µM*	Cc1cc(Cl)ccc1-n1c(-c2cccnc2)n[nH]c1=S
-15%	-1%	5%[46 µM]	32µM*	2%	u	S=c1[nH]nc(-c2cccnc2)n1-c1ccc2c(c1)OCCO2
1%	-24%	-18%[9.22 µM]	32µM*	u	-22%	Cc1ccc(C)c(-n2c(-c3cccnc3)n[nH]c2=S)c1
-14%	-51%	14%[46 µM]	x	7%	u	Fc1ccc(-c2n[nH]c(=S)n2-c2ccc3c(c2)OCCO3)cc1
-6%	5%	x	16%[12.7 µM]	3%	u	Cc1c(Cl)cccc1-n1c(-c2cccnc2)n[nH]c1=S
1%	13%	1%	32µM*	u	-2%	Cc1ccc(C)c(S(=O)(=O)N/N=C2/CCCc3ccccc32)c1
-2%	-4%	-9%	u	14µM*	12%	O=S(=O)(N/N=C1/CCCc2ccccc21)c1ccc(Br)cc1
1%	x	x	x	x	4%	CCn1c(SCC(=O)N2CC(C)OC(C)C2)nc2c([nH]c3ccccc32)c1=O (configuration not stated)
29%	-8%	9%	u	28µM*	-13%	Cc1ccc(-c2nnc(N3CCN(C(=O)COc4ccccc4)CC3)c3ccccc23)cc1
6%	2%	-19%	20%[59 µM]	18µM*	5%	Cc1ccc(-c2nnc(N3CCN(C(=O)CN4CCOCC4)CC3)c3ccccc23)cc1
-7%	-2%	-2%	-31%[12.7 µM]	13µM*	17%	O=C(CN1CCOCC1)N1CCN(c2nnc(-c3ccccc3)c3ccccc23)CC1
-3%	x	x	40µM*	x	8%	CN1CCN(c2nnc(-c3ccc(F)cc3)c3ccccc23)CC1
13%	-4%	u	-41%	u	3%	Cc1ccc(-c2nnc(N3CCN(C(=O)Cn4c(=O)n(C)c5ccccc54)CC3)c3ccccc23)cc1
